From patent US20220289728A1, “MODULATORS OF TREX1” (Constellation Pharmaceuticals, Inc., priority 2019, published 2022)

Chains of the proteins cited; added tags and fusions are not shown.
UniProt Q9NSU2, whole entry: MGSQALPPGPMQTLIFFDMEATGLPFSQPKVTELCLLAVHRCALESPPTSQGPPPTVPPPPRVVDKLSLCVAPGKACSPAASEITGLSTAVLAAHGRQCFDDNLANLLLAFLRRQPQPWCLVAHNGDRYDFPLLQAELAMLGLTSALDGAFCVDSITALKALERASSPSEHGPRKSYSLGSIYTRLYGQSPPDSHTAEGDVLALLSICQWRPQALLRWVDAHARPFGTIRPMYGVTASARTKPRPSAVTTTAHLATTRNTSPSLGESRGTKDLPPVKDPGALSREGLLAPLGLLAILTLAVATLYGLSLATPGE
UniProt Q9BQ50, whole entry: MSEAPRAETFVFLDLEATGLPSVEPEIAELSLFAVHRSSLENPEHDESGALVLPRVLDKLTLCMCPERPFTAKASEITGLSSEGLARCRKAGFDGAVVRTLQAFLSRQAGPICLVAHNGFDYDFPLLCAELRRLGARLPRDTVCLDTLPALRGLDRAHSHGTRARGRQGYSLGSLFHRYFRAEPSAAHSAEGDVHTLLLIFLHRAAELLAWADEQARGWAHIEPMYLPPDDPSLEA

Experiments:
full length human TREX1 = full length human TREX1 (Homo sapiens, UniProt Q9NSU2); assay: TREX1 Biochemical Assay (fluorescence, dsDNA substrate degradation); details: read-out: TREX1 IC50; 150 pM TREX1, 60 nM dsDNA substrate, 25 minutes at room temperature
Description: (§1) Degradation of the dsDNA liberates free fluorophore to produce a fluorescent signal. Specifically, 7.5 μL of N-terminally His-Tev tagged full length human TREX1 (expressed in E. coli and purified in house) in reaction buffer (50 mM Tris (pH 7.4), 150 mM NaCl, 2 mM DTT, 0.1 mg/mL BSA, 0.01% (v/v) Tween-20 and 100 mM MgCl2) was added to a 384-well Black ProxiPlate Plus (Perkin Elmer) which already contained compound (150 nL) at varying concentrations as a 10 point dose-response in DMSO. To this was added 7.5 μL of dsDNA substrate (Strand A: 5′ TEX615/GCT AGG CAG 3′; Strand B: 5′ CTG CCT AGC/IAbRQSp (Integrated DNA Technologies)) in reaction buffer. Final concentrations were 150 pM TREX1, 60 nM dsDNA substrate in reaction buffer with 1.0% DMSO (v/v). After 25 minutes at room temperature, reactions were quenched by the addition of 5 μL of stop buffer (same as reaction buffer plus 200 mM EDTA). […] After a 5-minute incubation at room temperature, plates were read in a laser sourced Envision (Perkin-Elmer), measuring fluorescence at 615 nm following excitation w/570 nm light. IC50 values were calculated by comparing the measured fluorescence at 615 nm ratio relative to control wells pre-quenched w/stop buffer (100% inhibition) and no inhibitor (0% inhibition) controls as using non-linear least square four parameter fits and either Genedata or GraphPad Prism (GraphPad Software, Inc.).

[1] = target: human TREX2 (residues M44-A279) (Homo sapiens, UniProt Q9BQ50); assay: TREX2 Biochemical Assay (fluorescence, dsDNA substrate degradation); details: read-out: TREX2 IC50; 2.5 nM TREX2, 60 nM dsDNA substrate, 25 minutes at room temperature
Description: as §1, with “tagged” for “tagged full length”, “TREX2 (residues M44-A279, expressed” for “TREX1 (expressed”, “(IDT))” for “(Integrated DNA Technologies))”, “2.5 nM TREX2,” for “150 pM TREX1,”

HCT116 dual cells = assay: HCT116 Cell Assay (Lucia luciferase reporter of Type I interferon induction); details: read-out: HCT116 EC50; 4 h pre-treatment, pBR322/BstNI DNA transfection, Lucia luciferase at 48 h; relative to 10 uM compound 39
From the text: HCT116 dual cells (Invivogen, San Diego, Calif., USA) are derived from the human HCT116 colorectal carcinoma cell line. Cells have been selected for the stable integration of SEAP and Luciferase reporter genes, which expression is under the control of 5 tandem response elements for NF-KB/AP1 and STAT1/STAT2, respectively. The cell line was used to monitor Type I interferon induction and subsequent signaling by measuring the activity of the Lucia luciferase secreted in the culture medium.
HCT116 cells were plated in 96-well plate(s) at 40,000 cells/well in 100 uL DMEM supplemented with 10% FBS and 25 mM Hepes (pH 7.2-7.5). After overnight settling, cells were treated with TREX1i for 4 h (maximum DMSO fraction was 0.1%) before 1.25 ug/mL pBR322/BstNI restriction digest (New England Biolabs, Ipswich, Mass., USA) was transfected with Lipofectamine LTX (ThermoFisher, Grand Island, N.Y., USA), according to product manual recommendations. Briefly, Lipofectamine LTX (0.4 uL/well) was diluted in OptiMEM (5 uL/well). pBR322/BstNI (100 ng/well) was diluted in OptiMEM (5 uL/well) before Plus reagent (0.1 uL/100 ng DNA) was added. After 5 min incubation at room temperature, the DNA mixture was mixed dropwise with the diluted Lipofectamine LTX. After an additional 10 min incubation, the transfection mix (10 uL/well) was added to the cells. […]

## CCOc1cccc(Cl)c1C(c1ccccc1)N(C)c1nc(C(=O)Nc2cnoc2)c(O)c(=O)n1C (single isomer, unassigned)
Full length human TREX1
  IC50: < 0.1 µM
[1]
  IC50: < 1 µM
HCT116 dual cells
  EC50: < 1 µM
